What was measured:
P-Glycoprotein = P-Glycoprotein (Homo sapiens (Human), UniProt P08183); assay: Digoxin bidirectional MDR1-MDCK permeability, Compound I-1 as an inhibitor; details: for efflux ratio at 1 μM: dog, MDCK-MDR1, pH 7.4, Digoxin Assymetry Index
hERG channel = hERG channel (Homo sapiens (Human), UniProt Q12809); details: 1 μM
[1] = Table 17, Digoxin 1 μM alone, Std
[2] = Table 17, Digoxin 1 μM alone, Surf.
[3] = preliminary experiment, Digoxin 1 μM alone, Std
[4] = preliminary experiment, Digoxin 1 μM alone, Surf.

By UniProt entry, the sequences of proteins in these tests, tags left out. Where a name states a change or a piece, a line headed by the entry shows the natural chain unless it says otherwise.
UniProt P08183, whole entry: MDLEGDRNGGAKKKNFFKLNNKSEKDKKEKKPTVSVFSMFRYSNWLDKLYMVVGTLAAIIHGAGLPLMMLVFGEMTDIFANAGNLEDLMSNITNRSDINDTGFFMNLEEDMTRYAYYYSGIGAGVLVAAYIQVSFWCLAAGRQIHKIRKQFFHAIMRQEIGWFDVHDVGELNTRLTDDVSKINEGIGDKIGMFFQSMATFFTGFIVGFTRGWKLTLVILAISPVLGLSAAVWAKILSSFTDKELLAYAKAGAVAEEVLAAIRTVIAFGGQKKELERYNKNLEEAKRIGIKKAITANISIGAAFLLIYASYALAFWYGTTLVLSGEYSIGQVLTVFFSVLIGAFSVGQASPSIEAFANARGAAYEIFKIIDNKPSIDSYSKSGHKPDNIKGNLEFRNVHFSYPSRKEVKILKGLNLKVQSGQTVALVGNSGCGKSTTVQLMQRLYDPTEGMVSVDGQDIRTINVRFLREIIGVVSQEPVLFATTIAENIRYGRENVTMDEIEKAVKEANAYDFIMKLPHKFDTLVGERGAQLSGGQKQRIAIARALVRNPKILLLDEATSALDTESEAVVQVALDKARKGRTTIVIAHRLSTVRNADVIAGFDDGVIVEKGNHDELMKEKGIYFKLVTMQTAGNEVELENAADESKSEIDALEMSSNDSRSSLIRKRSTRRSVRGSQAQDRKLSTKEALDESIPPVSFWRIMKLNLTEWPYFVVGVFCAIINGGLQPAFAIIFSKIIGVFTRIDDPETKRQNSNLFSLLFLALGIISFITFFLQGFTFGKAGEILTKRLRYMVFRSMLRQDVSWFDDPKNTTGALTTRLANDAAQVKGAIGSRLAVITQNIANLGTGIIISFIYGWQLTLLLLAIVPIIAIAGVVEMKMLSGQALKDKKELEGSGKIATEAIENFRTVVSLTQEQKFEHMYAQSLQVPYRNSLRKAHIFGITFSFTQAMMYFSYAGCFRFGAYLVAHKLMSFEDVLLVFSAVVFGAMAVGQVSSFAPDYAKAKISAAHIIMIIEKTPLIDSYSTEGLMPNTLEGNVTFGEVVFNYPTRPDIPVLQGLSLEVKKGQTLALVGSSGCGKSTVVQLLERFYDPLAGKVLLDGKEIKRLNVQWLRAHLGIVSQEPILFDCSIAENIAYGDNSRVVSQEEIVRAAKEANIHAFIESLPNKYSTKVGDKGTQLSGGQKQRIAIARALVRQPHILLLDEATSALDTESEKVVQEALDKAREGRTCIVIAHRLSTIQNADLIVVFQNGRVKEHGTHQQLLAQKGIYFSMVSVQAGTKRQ
UniProt Q12809: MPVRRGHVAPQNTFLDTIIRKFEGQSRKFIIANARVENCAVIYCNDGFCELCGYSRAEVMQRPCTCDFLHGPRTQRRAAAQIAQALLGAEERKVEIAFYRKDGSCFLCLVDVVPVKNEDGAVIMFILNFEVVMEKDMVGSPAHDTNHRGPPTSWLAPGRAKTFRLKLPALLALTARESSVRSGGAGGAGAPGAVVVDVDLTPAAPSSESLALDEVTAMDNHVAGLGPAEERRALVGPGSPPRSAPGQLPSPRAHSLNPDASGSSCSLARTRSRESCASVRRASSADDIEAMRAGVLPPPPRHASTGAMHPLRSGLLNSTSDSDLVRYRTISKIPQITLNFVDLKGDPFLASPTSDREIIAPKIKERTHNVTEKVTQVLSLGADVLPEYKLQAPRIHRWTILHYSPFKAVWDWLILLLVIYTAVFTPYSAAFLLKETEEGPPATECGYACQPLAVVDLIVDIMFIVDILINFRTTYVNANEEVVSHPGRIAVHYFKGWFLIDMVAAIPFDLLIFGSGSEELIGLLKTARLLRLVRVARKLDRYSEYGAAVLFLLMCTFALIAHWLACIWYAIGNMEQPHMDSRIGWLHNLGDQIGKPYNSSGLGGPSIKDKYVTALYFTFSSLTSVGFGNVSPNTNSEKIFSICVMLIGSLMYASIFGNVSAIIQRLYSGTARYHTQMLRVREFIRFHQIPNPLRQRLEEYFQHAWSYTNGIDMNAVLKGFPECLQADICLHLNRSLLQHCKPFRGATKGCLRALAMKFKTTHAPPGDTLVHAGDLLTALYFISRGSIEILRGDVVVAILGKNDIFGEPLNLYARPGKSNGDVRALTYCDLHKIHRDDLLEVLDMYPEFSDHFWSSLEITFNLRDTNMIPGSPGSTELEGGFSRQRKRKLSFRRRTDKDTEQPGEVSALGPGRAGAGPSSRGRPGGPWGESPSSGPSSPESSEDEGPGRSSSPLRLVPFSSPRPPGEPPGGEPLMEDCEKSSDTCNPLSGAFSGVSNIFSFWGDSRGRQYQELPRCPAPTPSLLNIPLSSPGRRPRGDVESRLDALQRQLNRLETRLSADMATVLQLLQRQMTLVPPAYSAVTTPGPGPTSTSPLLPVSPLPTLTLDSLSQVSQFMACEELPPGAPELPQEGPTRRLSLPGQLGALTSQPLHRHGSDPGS

| Digoxin Mass Bal (AP→BL) (P-Glycoprotein; [1]) | Digoxin Mass Bal (BL→AP) (P-Glycoprotein; [1]) | Digoxin Mass Bal (AP→BL) (P-Glycoprotein; [2]) | Digoxin Mass Bal (BL→AP) (P-Glycoprotein; [2]) | efflux ratio at 1 μM (P-Glycoprotein; [1]) | efflux ratio at 1 μM (P-Glycoprotein; [2]) | efflux ratio at 1 μM (P-Glycoprotein; [3]) | Digoxin Mass Bal (AP→BL) (P-Glycoprotein; [3]) | Digoxin Mass Bal (BL→AP) (P-Glycoprotein; [3]) | Digoxin Mass Bal (AP→BL) (P-Glycoprotein; [4]) | Digoxin Mass Bal (BL→AP) (P-Glycoprotein; [4]) | Structure (SMILES) | % Block Trial 1 (hERG channel) | % Block Trial 2 (hERG channel) |
| --- | --- | --- | --- | --- | --- | --- | --- | --- | --- | --- | --- | --- | --- |
| 116% | 98% | 106% | 97% | 3.3 | 2.2 | 83.3 | 122% | 117% | 96% | 94% | C[C@H]1O[C@@H](O[C@H]2[C@@H](O)C[C@H](O[C@H]3[C@@H](O)C[C@H](O[C@H]4CC[C@@]5(C)[C@H](CC[C@@H]6[C@@H]5C[C@@H](O)[C@]5(C)[C@@H](C7=CC(=O)OC7)CC[C@]65O)C4)O[C@@H]3C)O[C@@H]2C)C[C@H](O)[C@@H]1O [Digoxin] | – | – |
| – | – | – | – | – | – | – | – | – | – | – | COc1cc(N)c(Cl)cc1C(=O)NC1CCN(CCCOc2ccc(F)cc2)CC1OC (stereo not shown) [Cisapride] | >95% | >95% |

Source: patent publication US8551963B2, “Imidazolothiazole compounds and methods of use thereof” (Ambit Biosciences Corporation, priority 2008, dated 2013)
